# Values quoted from earlier work as cited in patent US11534589B2, “Iontophoretic microneedle device” (LTS LOHMANN THERAPIE-SYSTEME AG, priority 2017, dated 2022).
# Conditions: PMVE/Ma microneedles with iontophoresis compared to microneedle or iontophoresis alone
substance,measurement,value
bovine insulin,Delivery through porcine skin,increased delivery
